# Test results published in patent publication US9884844B2 (priority 2012, dated 2018).
# Sequences of proteins named here, by UniProt entry; tags and fusion partners are left off. A change or cut given only in a name is not applied to a line headed by its entry.
# UniProt P41146: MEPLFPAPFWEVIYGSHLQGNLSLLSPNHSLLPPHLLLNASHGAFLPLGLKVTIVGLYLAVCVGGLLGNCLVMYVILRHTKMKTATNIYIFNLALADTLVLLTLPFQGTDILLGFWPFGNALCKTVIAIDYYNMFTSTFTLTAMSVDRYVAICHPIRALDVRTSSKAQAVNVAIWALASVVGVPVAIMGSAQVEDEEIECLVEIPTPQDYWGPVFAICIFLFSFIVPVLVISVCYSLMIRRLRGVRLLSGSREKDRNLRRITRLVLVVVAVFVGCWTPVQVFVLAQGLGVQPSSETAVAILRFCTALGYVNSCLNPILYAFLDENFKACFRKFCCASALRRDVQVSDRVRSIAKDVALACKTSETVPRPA
# Target: human NOP (Homo sapiens, UniProt P41146)
# Test: cAMP assay on cells expressing human NOP (NOP assay)
# Conditions: read-out: NOP EC50, HEK cells expressing human NOP
row,SMILES,EC50 [nM]
1,O=C1NCC2(N1)C(=O)N(C1CCN(C3Cc4cccc5cccc3c45)CC1)c1ccccc12 (stereo not drawn),< 100
2,CNC(=O)CC1(O)C(=O)N(C2CCN(C3Cc4cccc5ccnc3c45)CC2)c2ccccc21 (stereo not drawn),> 5000
3,NC(=O)CC1(O)C(=O)N(C2CCN(C3Cc4cccc5cccc3c45)CC2)c2ccccc21 (stereo not drawn),100 to 1000
4,CNC(=O)C[C@@H]1C(=O)N(C2CCN(C3Cc4cccc5cccc3c45)CC2)c2ccccc21 (stereo partly drawn),< 100
5,C[C@@H](O)CC1(O)C(=O)N(C2CCN(C3Cc4cccc5cccc3c45)CC2)c2ccccc21 (stereo partly drawn),> 5000
6,CN(C)C(=O)CC1C(=O)N(C2CCN(C3Cc4cccc5cccc3c45)CC2)c2ccccc21 (stereo not drawn),< 100
7,CNC(=O)C[C@]1(C)C(=O)N(C2CCN([C@@]3(C)CCCc4ccccc43)CC2)c2ccccc21,< 100
8,CC1(CC(N)=O)C(=O)N(C2CCN(C3Cc4cccc5cccc3c45)CC2)c2ccccc21 (stereo not drawn),< 100
9,CNC(=O)CC1(C)C(=O)N(C2CCN(CCC(Oc3cccc(OC)c3)C(C)C)CC2)c2ccccc21 (stereo not drawn),100 to 1000
10,CNC(=O)C[C@]1(O)C(=O)N(C2CCN([C@H]3Cc4cccc5cccc3c45)CC2)c2ccccc21,< 100
11,CNC(=O)C[C@]1(C)C(=O)N(C2CCN([C@@]3(C)CCc4ccccc43)CC2)c2ccccc21,< 100
12,CC1(Cc2ncco2)C(=O)N(C2CCN([C@@H]3Cc4cccc5cccc3c45)CC2)c2ccccc21 (stereo partly drawn),> 5000
13,CNC(=O)C[C@@]1(C)C(=O)N(C2CCN([C@H]3c4ccccc4CC[C@@H]3O)CC2)c2ccccc21,> 5000
14,CNC(=O)CC1(C)C(=O)N(C2CCN(C3(C)Cc4cccc5cccc3c45)CC2)c2ccccc21 (stereo not drawn),< 100
15,CNC(=O)C[C@]1(O)C(=O)N(C2CCN([C@@H]3c4cccc5cccc(c45)[C@H]3O)CC2)c2ccccc21,< 100
16,CN(C)C(=O)CC1(F)C(=O)N(C2CCN(C3Cc4cccc5cccc3c45)CC2)c2ccccc21 (stereo not drawn),< 100
17,CNC(=O)C[C@@]1(O)C(=O)N(C2CCN([C@@H]3c4cccc5cccc(c45)[C@H]3O)CC2)c2ccccc21,100 to 1000
18,CCOC(=O)CC1C(=O)N(C2CCN([C@@H]3c4cccc5cccc(c45)[C@H]3C)CC2)c2ccccc21 (stereo partly drawn),100 to 1000
19,CNC(=O)CC1(OC)C(=O)N(C2CCN(CCC(Oc3cc(OC)ccc3Cl)C(C)C)CC2)c2ccccc21 (stereo not drawn),100 to 1000
20,C[C@]1(C[C@H](O)CN)C(=O)N(C2CCN([C@@H]3Cc4cccc5cccc3c45)CC2)c2ccccc21,> 5000
21,CNC(=O)CC1(F)C(=O)N(C2CCN(C3(C)Cc4cccc5cccc3c45)CC2)c2ccccc21 (stereo not drawn),< 100

row,SMILES,EC50 [nM]
1,CNC(=O)CC1(C)C(=O)N(C2CCN(C3(C)Cc4cccc5cccc(c45)C3)CC2)c2ccccc21 (stereo not drawn),> 5000
2,CNC(=O)CC1(O)C(=O)N(C2CCN([C@H]3c4cccc5cccc(c45)[C@@H]3O)CC2)c2ccccc21 (stereo partly drawn),< 100
3,CNC(=O)CC1C(=O)N(C2CCN(CCC(Oc3cc(C)ccc3Cl)C(C)C)CC2)c2ccccc21 (stereo not drawn),< 100
4,CNC(=O)CC1(C)C(=O)N(C2CCN(C3(C)CCc4ccccc43)CC2)c2ccccc21 (stereo not drawn),< 100
5,CN1C(=O)NCC12C(=O)N(C1CCN(C3Cc4cccc5cccc3c45)CC1)c1ccccc12 (stereo not drawn),< 100
6,CNC(=O)CC1(OC)C(=O)N(C2CCN(C3Cc4cccc5cccc3c45)CC2)c2ccccc21 (stereo not drawn),< 100
7,COC(=O)NCC1(O)C(=O)N(C2CCN(C3Cc4cccc5cccc3c45)CC2)c2ccccc21 (stereo not drawn),> 5000
8,CNC(=O)CC1(O)C(=O)N(C2CCN(C3Cc4cccc5ccc(OC)c3c45)CC2)c2ccccc21 (stereo not drawn),< 100
9,CNC(=O)CC1(O)C(=O)N(C2CCN(C3(C)Cc4cccc5cccc3c45)CC2)c2ccccc21 (stereo not drawn),< 100
10,COCCC1(O)C(=O)N(C2CCN([C@H]3c4cccc5cccc(c45)C3O)CC2)c2ccccc21 (stereo partly drawn),> 5000
11,"CNC(=O)C[C@@]1(F)C(=O)N(C2CCN(C3c4cccc5cccc(c45)[C@@H]3O)CC2)c2ccccc21 (single isomer, unassigned)",> 5000
12,CNC(=O)C(C)C1(O)C(=O)N(C2CCN(C3Cc4cccc5cccc3c45)CC2)c2ccccc21 (stereo not drawn),< 100
13,"NC[C@@H](O)CC1(O)C(=O)N(C2CCN(C3Cc4cccc5cccc3c45)CC2)c2ccccc21 (single isomer, unassigned)",< 100
14,CN1CC2(OC1=O)C(=O)N(C1CCN(C3Cc4cccc5cccc3c45)CC1)c1ccccc12 (stereo not drawn),< 100
15,CNC(=O)CC1(OC)C(=O)N(C2CCN(CCC(Oc3cccc(OC)c3)C(C)C)CC2)c2ccccc21 (stereo not drawn),> 5000
16,C[C@@]1(C[C@H](O)CN)C(=O)N(C2CCN([C@@H]3Cc4cccc5cccc3c45)CC2)c2ccccc21,> 5000
17,CNC(=O)C1CC12C(=O)N(C1CCN(C3Cc4cccc5cccc3c45)CC1)c1ccccc12 (stereo not drawn),1000 to 5000
18,COc1ccc(Cl)c(OC(CCN2CCC(N3C(=O)C(O)(CC(=O)N(C)C)c4ccccc43)CC2)C(C)C)c1 (stereo not drawn),100 to 1000
19,COc1ccc(Cl)c(OC(CCN2CCC(N3C(=O)C(O)(CC(N)=O)c4ccccc43)CC2)C(C)C)c1 (stereo not drawn),< 100
20,CNC(=O)CC1(O)C(=O)N(C2CCN(C3(C)CCCc4ccccc43)CC2)c2ccccc21 (stereo not drawn),< 100
21,COCCC1(C)C(=O)N(C2CCN([C@H]3c4cccc5cccc(c45)C3O)CC2)c2ccccc21 (stereo partly drawn),< 100

row,SMILES,EC50 [nM]
1,CN1CC2(CC1=O)C(=O)N(C1CCN(C3Cc4cccc5cccc3c45)CC1)c1ccccc12 (stereo not drawn),< 100
2,CNC(=O)C(C)C1(F)C(=O)N(C2CCN(C3Cc4cccc5cccc3c45)CC2)c2ccccc21 (stereo not drawn),< 100
3,O=C1CC2(CN1)C(=O)N(C1CCN(C3Cc4cccc5cccc3c45)CC1)c1ccccc12 (stereo not drawn),< 100
4,CNC(=O)CC1(O)C(=O)N(C2CCN(C3Cc4cccc5cccc3c45)CC2)c2ccccc21 (stereo not drawn),< 100
5,CN(C)C(=O)CC1(C)C(=O)N(C2CCN(C3Cc4cccc5cccc3c45)CC2)c2ccccc21 (stereo not drawn),< 100
6,CC(=O)OC1C(=O)N(C2CCN(C3Cc4cccc5cccc3c45)CC2)c2ccccc21 (stereo not drawn),< 100
7,CNC(=O)C[C@]1(C)C(=O)N(C2CCN([C@H]3c4ccccc4CC[C@@H]3O)CC2)c2ccccc21,> 5000
8,NC(=O)CC1C(=O)N(C2CCN(C3Cc4cccc5cccc3c45)CC2)c2ccccc21 (stereo not drawn),< 100
9,CNC(=O)CC1(O)C(=O)N(C2CCN(C3c4cccc5cccc(c45)C3C)CC2)c2ccccc21 (stereo not drawn),< 100
10,CNC(=O)CC1C(=O)N(C2CCN(C3CC[C@H]4CCCc5cccc3c54)CC2)c2ccccc21 (stereo partly drawn),< 100
11,NC(=O)[C@H]1CC12C(=O)N(C1CCN(C3Cc4cccc5cccc3c45)CC1)c1ccccc12 (stereo partly drawn),< 100
12,CN(C)C(=O)CC1(C)C(=O)N(C2CCN([C@H]3c4cccc5cccc(c45)[C@@H]3O)CC2)c2ccccc21 (stereo partly drawn),< 100
13,"CNC(=O)C[C@@]1(F)C(=O)N(C2CCN(C3c4cccc5cccc(c45)[C@H]3O)CC2)c2ccccc21 (single isomer, unassigned)",> 5000
14,CC1(CC(O)CO)C(=O)N(C2CCN([C@@H]3Cc4cccc5cccc3c45)CC2)c2ccccc21 (stereo partly drawn),> 5000
15,CNC(=O)CC1C(=O)N(C2CCN(C3Cc4cccc5ccc(OC)c3c45)CC2)c2ccccc21 (stereo not drawn),> 5000
16,"CNC(=O)C[C@]1(F)C(=O)N(C2CCN(C3c4cccc5cccc(c45)[C@@H]3O)CC2)c2ccccc21 (single isomer, unassigned)",> 5000
17,CN(C)C(=O)CC1(O)C(=O)N(C2CCN([C@H]3c4cccc5cccc(c45)[C@@H]3O)CC2)c2ccccc21 (stereo partly drawn),< 100
18,COc1ccc(Cl)c(OC(CCN2CCC(N3C(=O)C(CC(N)=O)c4ccccc43)CC2)C(C)C)c1 (stereo not drawn),< 100
19,CNC(=O)CC1(O)C(=O)N(C2CCN(C3c4cccc5cccc(c45)[C@@H]3C)CC2)c2ccccc21 (stereo partly drawn),< 100
20,O=C1NCC2(O1)C(=O)N(C1CCN(C3Cc4cccc5cccc3c45)CC1)c1ccccc12 (stereo not drawn),< 100
21,Cc1cccc2cccc(CN3CCC(N4C(=O)C(CC5CNC(=O)O5)c5ccccc54)CC3)c12 (stereo not drawn),1000 to 5000

row,SMILES,EC50 [nM]
1,CNC(=O)CC1C(=O)N(C2CCN(C3c4cccc5cccc(c45)C3C)CC2)c2ccccc21 (stereo not drawn),< 100
2,CNC(=O)C[C@]1(C)C(=O)N(C2CCN([C@H]3CCCc4ccccc43)CC2)c2ccccc21,< 100
3,COC(=O)NCC1(O)C(=O)N(C2CCN([C@@H]3c4cccc5cccc(c45)[C@H]3O)CC2)c2ccccc21 (stereo partly drawn),> 5000
4,CNC(=O)[C@H]1CC12C(=O)N(C1CCN(C3Cc4cccc5cccc3c45)CC1)c1ccccc12 (stereo partly drawn),< 100
5,CNC(=O)CC1C(=O)N(C2CCN(C3c4cccc5cccc(c45)C3O)CC2)c2ccccc21 (stereo not drawn),< 100
6,CC1(Cc2ncn[nH]2)C(=O)N(C2CCN(C3c4cccc5cccc(c45)C3O)CC2)c2ccccc21 (stereo not drawn),> 5000
7,"CNC(=O)C[C@]1(F)C(=O)N(C2CCN(C3c4cccc5cccc(c45)[C@H]3O)CC2)c2ccccc21 (single isomer, unassigned)",> 5000
8,O=C1C(CC(O)CN(Cc2ccccc2)Cc2ccccc2)c2ccccc2N1C1CCN(C2Cc3cccc4cccc2c34)CC1 (stereo not drawn),> 5000
9,O=C1NCCC12C(=O)N(C1CCN(C3Cc4cccc5cccc3c45)CC1)c1ccccc12 (stereo not drawn),100 to 1000
10,CNC(=O)C[C@@]1(O)C(=O)N(C2CCN([C@@H]3Cc4cccc5cccc3c45)CC2)c2ccccc21,100 to 1000
11,CNC(=O)CC1(F)C(=O)N(C2CCN([C@H]3c4cccc5cccc(c45)[C@@H]3O)CC2)c2ccccc21 (stereo partly drawn),> 5000
12,C[C@H](O)CC1(O)C(=O)N(C2CCN(C3Cc4cccc5cccc3c45)CC2)c2ccccc21 (stereo partly drawn),> 5000
13,CNC(=O)C[C@@]1(C)C(=O)N(C2CCN([C@@]3(C)CCc4ccccc43)CC2)c2ccccc21,< 100
14,CNC(=O)CC1(O)C(=O)N(C2CCN(CCC(Oc3cc(OC)ccc3Cl)C(C)C)CC2)c2ccccc21 (stereo not drawn),< 100
15,CNC(=O)C[C@@]1(O)C(=O)N(C2CCN([C@H]3Cc4cccc5cccc3c45)CC2)c2ccccc21,< 100
16,CNC(=O)CC1(O)C(=O)N(C2CCN([C@H]3c4cccc5cccc(c45)[C@]3(C)O)CC2)c2ccccc21 (stereo partly drawn),100 to 1000
17,CNC(=O)CC1C(=O)N(C2CCN(C3Cc4cccc5cccc3c45)CC2)c2ccccc21 (stereo not drawn),< 100
18,O=C(/C=C1/C(=O)N(C2CCN(C3Cc4cccc5cccc3c45)CC2)c2ccccc21)N1CCCCC1 (stereo not drawn),> 5000
19,CNC(=O)CC1(C)C(=O)N(C2CCN([C@H]3c4cccc5cccc(c45)[C@@H]3O)CC2)c2ccccc21 (stereo partly drawn),< 100
20,O=C1N(C2CCN(C3Cc4cccc5cccc3c45)CC2)c2ccccc2C1(F)CC(O)CO (stereo not drawn),> 5000
21,CNC(=O)CC1(C)C(=O)N(C2CCN([C@H]3c4cccc5cccc(c45)[C@@H]3OC)CC2)c2ccccc21 (stereo partly drawn),< 100
